Where “and” joins values, the source holds several entries; their conditions need not be identical. Identical values can stand only once. Like-named read-outs stand apart in the source and are kept apart here.
What was measured:
[1] = tested on: p53 signaling (p53RE-bla HCT-116 cells)
[2] = tested on: p53 signaling (p53RE-bla HCT-116 cells); remark: listed apart in the source
[3] = tested on: p53 signaling (p53RE-bla HCT-116 cells); remark: listed apart in the source
in vitro = settings: male, Sprague Dawley, rat, microsomes, pH 7.4

Structure (SMILES): Cl.Nc1c2ccccc2nc2ccccc12.O
- p53 activation Efficacy, No MS [1]: 414.606% and 313.511%
- EC50 ([1]; read-out: p53 activation EC50, No MS): 7.66 µM and 6.41 µM
- p53 activation EC50, RLM [2]: inactive
- EC50 ([2]; read-out: p53 activation EC50, RLM): 11.6 µM
- p53 activation EC50, HLM [3]: inactive
- EC50 ([3]; read-out: p53 activation EC50, HLM): 16.6 µM
- Viability EC50, HLM (p53RE-bla HCT-116 cells): inactive
- Viability EC50, No MS (p53RE-bla HCT-116 cells): inactive
- Viability EC50, RLM (p53RE-bla HCT-116 cells): inactive
- Viability Efficacy, HLM (p53RE-bla HCT-116 cells): inactive
- Viability Efficacy, No MS (p53RE-bla HCT-116 cells): inactive
- Viability Efficacy, RLM (p53RE-bla HCT-116 cells): inactive

Structure (SMILES): COP(=S)(OC)SCn1nnc2ccccc2c1=O [Azinphos-methyl]
- half-life (in vitro): 1.32 ± 0.64 min

Structure (SMILES): CCOP(=S)(OCC)Oc1cc(Cl)c(Br)cc1Cl [Bromophos-ethyl]
- half-life (in vitro): > 120 min

Structure (SMILES): CCOP(=S)(OCC)Oc1ccc([S+](C)[O-])cc1 (centres unmarked) [Fensulfothion]
- half-life (in vitro): 13.2 ± 1.25 min

Structure (SMILES): CCOP(=S)(OCC)Oc1nc(Cl)n(C(C)C)n1 [Isazofos]
- half-life (in vitro): 2.12 ± 0.14 min

Structure (SMILES): CCOP(=S)(OCC)Oc1cc(C)nc(N(CC)CC)n1 [Pirimiphos-ethyl]
- half-life (in vitro): 1.09 ± 0.08 min

— publication PMC9151520 (Archives of Toxicology, 2022)
